Data from the NIST ThermoML archive (doi:10.1016/j.fluid.2016.07.025).
Numbers after ± are expanded uncertainties.

Conditions: for speed of sound: Rayleigh light scatter; for thermal diffusivity: Rayleigh light scattering

CCCCOCCCC [dibutyl ether]
Conditions	speed of sound, Gas [m/s]	speed of sound, Liquid [m/s]	thermal diffusivity, Gas [m2/s]	thermal diffusivity, Liquid [m2/s]
303.15 K	–	1143.5 ± 5.7	–	7.07e-08 ± 2e-09
318.15 K	–	1085.8 ± 5.5	–	6.81e-08 ± 1.9e-09
333.15 K	–	1029 ± 5.2	–	6.56e-08 ± 1.8e-09
348.15 K	–	973.04 ± 4.9	–	6.32e-08 ± 1.8e-09
363.15 K	–	917.88 ± 4.6	–	6.1e-08 ± 1.7e-09
373.15 K	–	881.52 ± 4.4	–	5.95e-08 ± 1.7e-09
383.15 K	–	845.45 ± 4.3	–	5.81e-08 ± 1.7e-09
393.15 K	–	809.66 ± 4.1	–	5.67e-08 ± 1.6e-09
403.15 K	–	774.11 ± 3.9	–	5.54e-08 ± 1.6e-09
413.15 K	–	738.78 ± 3.7	–	5.42e-08 ± 1.6e-09
423.15 K	–	703.63 ± 3.6	–	5.3e-08 ± 1.5e-09
433.15 K	–	668.62 ± 3.4	–	5.18e-08 ± 1.5e-09
443.15 K	–	633.7 ± 3.2	–	5.06e-08 ± 1.5e-09
453.15 K	155.84 ± 0.93	598.83 ± 3	–	4.95e-08 ± 1.4e-09
463.15 K	155.2 ± 0.92	563.95 ± 2.9	–	4.85e-08 ± 1.4e-09
473.15 K	153.97 ± 0.92	528.99 ± 2.7	–	4.74e-08 ± 1.4e-09
483.15 K	152.07 ± 0.91	493.86 ± 2.5	–	4.64e-08 ± 1.4e-09
493.15 K	149.44 ± 0.9	458.48 ± 2.4	–	4.54e-08 ± 1.3e-09
503.15 K	145.99 ± 0.88	422.72 ± 2.2	–	4.45e-08 ± 1.3e-09
508.15 K	143.93 ± 0.88	404.65 ± 2.1	–	4.4e-08 ± 1.3e-09
513.15 K	141.62 ± 0.87	386.43 ± 2	–	4.35e-08 ± 1.3e-09
518.15 K	139.06 ± 0.86	368.04 ± 1.9	–	4.3e-08 ± 1.3e-09
523.15 K	136.23 ± 0.85	349.43 ± 1.8	–	4.25e-08 ± 1.3e-09
528.15 K	133.13 ± 0.83	330.59 ± 1.7	–	4.19e-08 ± 1.3e-09
533.15 K	129.72 ± 0.82	311.47 ± 1.6	–	4.14e-08 ± 1.3e-09
538.15 K	126 ± 0.8	292.02 ± 1.6	–	4.08e-08 ± 1.2e-09
543.15 K	121.95 ± 0.79	272.18 ± 1.5	1.98e-07 ± 3.9e-07	4.02e-08 ± 1.2e-09
548.15 K	117.54 ± 0.77	251.88 ± 1.4	1.81e-07 ± 3.9e-07	3.96e-08 ± 1.2e-09
